{"source": "ChEMBL document CHEMBL1275501", "about": "“Plasmid-mediated quinolone resistance pump QepA2 in an Escherichia coli isolate from France” (2008)", "system": "Escherichia coli", "settings": "BicA"}
{"sequence": "GENTAMICIN", "values": [{"measurement": "MIC", "result": 0.5, "unit": "µg/mL"}]}
